# Patent US20180057595A1 (CELLDEX THERAPEUTICS, published 2018)
# Residue numbers refer to the chain shown, from its start.
# B1: Ab235 (antibody, mouse IgG1, V domains shown)
# VH: QVQLQQSGAELMKPGASVKISCKATGYTFSNYWIEWVKQRPGHGLEWIGEILPGSDYTKYNEKFKGKATFTADTSSNTAYMQLSSLTSEDSAVYYCARPSTIPPDCWGQGTTLTVSA
# VL: QIVLTQSPAIMSTSPGEKVTMTCSASSSVNYMFWYQQKAGSSPRLLIYDTFNLASGVPVRFSGSGSGTSYSLTISRMEAEDAATYYCQQWSIYPYTFGGGTKLEIKR
# notes: Mouse IgG1, kappa
# B2: Ab236 (antibody, mouse IgG1, V domains shown)
# VH: B1 VH with V2A, T28I, N31S, Y57F, T58I, N61S, S85N, I102V
# VL: B1 VL with T13A, N30S, A39P, F51S, N52D, I92N
# notes: Mouse IgG1, kappa
# B3: Ab237 (antibody, rat IgG2a, V domains shown)
# VH: EVQLVESGGGLVQPGRSLKLSCAASGFTFSDSYMAWVRQAPTKGLEWVASISSDGGGTYYRDSVKGRFSISRDNAKSSLYLQMDSLRSEDTATYYCTTEGIYTTDYYPYCFNYWGHGVMVTVSA
# VL: DIQMTQSPGSLSASLGETVTIECLASADIHSNLAWYQQKPGNSPQLLIYYGNNLNDGVPSRFSGSGSGTQYSLKINSLQSEDVSIYFCQQSYDSPPTFGAGTKLEIKR
# notes: Rat IgG2a, kappa
# B4: Ab238 (antibody, rat IgG2a, V domains shown)
# VH: QVTLKESGPGILQPSQTLSLTCTFSGFSLSTYGMGVAWIRQPSGKDLEWLANIWWDDVNYSNPSLKNRLTISKDTSNNQVFLQITNVDTAETATYYCARIGTSHIVDAWGQGASVTVSA
# VL: DIRMTQSPASLSASLGETVNIECLASEDIYSDLAWYQQKPGKSPQLLIYNANTLQNGVPSVFSGSGSGTQYSLKINNLHSEDVATYFCQQYNNYPPTFGGGTKLEIKR
# notes: Rat IgG2a, kappa
# B5: Ab239 (antibody, rat IgG2a, V domains shown)
# VH: EVQLVESGGGLVQPGRSLKLSCAASGFSFTDCYMAWVRQAPTKGLEWVASISSDGGGTYYRDSVKGRFTISRDNARSSLYLEMDSLRSEDTATYYCTTERYYDGTYYGYWYFDFWGPGTMVTVSA
# VL: GQFTLTQPKSVSGSLRSTITIPCVRSSGDIGDRYVSWYQQRLGRPPLNVIYAADQRPSEVSDRFSGSIDSSSNSASLTITDLQMDDEADYFCQSYDSNIDIVFGGGTKLEIKR
# notes: Rat IgG2a, lambda
# Assays:
# [1] = target: T1, human MET-ECD with a His tag (MET-ECD-His) (human, UniProt P08581 25-932); assay: ELISA on coated human MET-ECD
# T1 construct: The ELISA sections speak of MET-ECD, MET-ECD-His or His-tagged MET extracellular domain; also called hu-MET-ECD; human cMET ECD
# Procedure: To measure antibody binding by ELISA, 10 μg of human, murine or chimeric MET-ECD was coated onto 96-well plates (Costar). Serial dilutions of antibodies were added to the plates and incubated at room temperature for 1 hr prior to the addition of HRP-conjugated secondary antibody. Luminescence was measured with BioTek SYNERGY™ HT plate reader, and binding EC₅₀ values were determined using […] PRISM® software.
# [2] = target: T1, human MET-ECD with a His tag …; assay: ELISA on recombinant MET-ECD
# [3] = target: T2, human MET, cell-surface expressed (human, UniProt P08581 25-1390); assay: FACS competition on A549 cells; competitor Alexa-647-labelled Ab235
# T2 construct: whole, on cells; Used for all assays on cells that carry wild-type human MET; the cell line is named under assay or readout; also called c-Met; hMET
# [4] = target: T2, human MET, cell-surface expressed; assay: FACS on A549 cells, cell surface MET
# [5] = target: MET without the 47 amino acids encoded by exon 14 (H596 cells) (human, UniProt P08581 25-1390); assay: cell-based or functional assay
# [6] = target: T2, human MET, cell-surface expressed; assay: cell-based or functional assay
# [7] = target: T1, human MET-ECD with a His tag …; assay: ELISA, immobilised His-tagged MET ECD; displacement of biotinylated HGF (0.3 nM)
Binder,EC50 [1],EC50 [2],IC50 [3],EC50 [4],"IC50, tumor cell proliferation with HGF, H596 cells [5]","IC50, HGF-induced DU145 cell scatter [6]","IC50, HGF-induced phosphorylation of MET Tyr1234/Tyr1235, ELISA, A549 cells [6]","IC50, tumor cell proliferation with HGF, A549 cells [6]","IC50, tumor cell proliferation with HGF, U87MG cells [6]",IC50 [7],"IC50, MET Tyr1234/Tyr1235 phosphorylation, ELISA, U87MG cells [6]"
B1,0.13 nM,1.2 nM,~3 nM,1.4 nM,~0.8 nM,~0.48 nM,~0.217 nM,~6.6 nM,~25 nM,~2 nM,–
B2,0.05 nM,0.45 nM,~1 nM,0.5 nM,~0.6 nM,~0.08 nM,~0.076 nM,~6.3 nM,~9 nM,~0.5 nM,~0.047 nM
B3,0.02 nM,0.14 nM,~0.5 nM,0.4 nM,~0.08 nM,~0.08 nM,~0.04 nM,~1.7 nM,~5.5 nM,~0.5 nM,~0.043 nM
B4,0.09 nM,0.7 nM,~1 nM,0.3 nM,~0.2 nM,~1.4 nM,~0.093 nM,~4.8 nM,~25 nM,~0.4 nM,~0.029 nM
B5,0.04 nM,0.5 nM,~0.8 nM,0.2 nM,~0.2 nM,~0.24 nM,~0.09 nM,~4.4 nM,~19 nM,~0.3 nM,~0.044 nM
